What was measured:
[1] = target: human TLR7 (Homo sapiens, UniProt Q9NYK1); test: HEK-Blue hTLR7 SEAP reporter gene inhibition assay; settings: read-out: HEK-Blue hTLR7 IC50; hTLR7 HEK-Blue cells, TLR7 ligand Gardiquimod 10 µM, 20 hours, SEAP by Quanti-blue; class symbols
Procedure: (§1) HEK-Blue cells with stable expression of human TLR7 or TLR8 were used in the evaluation of inhibitory activity of compounds in the present invention against TLR7 or TLR8, by using its ability to induce the SEAP reporting gene under the control of the fusion of IFN-β minimum promoters into five NF-κB and ap-1 binding sites, as follows: hTLR7 HEK-Blue cells (Invivogen, 80, 000 cells per well) or hTLR8 HEK-Blue cells (60, 000 cells per well) were added to a 96-well cell culture plate. A solution of the testing compounds were added to each well, with the final concentration of tested compounds in the medium ranged from 0.001 to 36 µM and the culture was incubated for 15 minutes. M5049 was used as positive controls in the testing.
(§2) Then a TLR7 ligand (Gardiquimod, purchased from MedChemExpress, with final concentration of ligand in cell culture medium kept at 10 µM) or a TLR8 ligand (purchased from MedChemExpress with final concentration in cell culture media at 10 µM) and the culture was incubated for 20 hours. According to the manufacturer's instructions, a HEK-Blue reagent Quanti-blue (Invivogen) was used to detect the SEAP levels in cell cultures. The half […] concentration or IC50 was calculated by using GraphPad Prism. The IC50 values were defined as A and B (Against hTLR7 EC50(µM): A < 0.05 µM, B > 0.05 µM; against hTLR8 EC 50(µM): A < = 0.1 µM, B > 0.1 µM; -, as untested). […]

Chains of the proteins cited; added tags and fusions are not shown. Residues count along the entry.
UniProt Q9NYK1, 27-1049 limits assumed: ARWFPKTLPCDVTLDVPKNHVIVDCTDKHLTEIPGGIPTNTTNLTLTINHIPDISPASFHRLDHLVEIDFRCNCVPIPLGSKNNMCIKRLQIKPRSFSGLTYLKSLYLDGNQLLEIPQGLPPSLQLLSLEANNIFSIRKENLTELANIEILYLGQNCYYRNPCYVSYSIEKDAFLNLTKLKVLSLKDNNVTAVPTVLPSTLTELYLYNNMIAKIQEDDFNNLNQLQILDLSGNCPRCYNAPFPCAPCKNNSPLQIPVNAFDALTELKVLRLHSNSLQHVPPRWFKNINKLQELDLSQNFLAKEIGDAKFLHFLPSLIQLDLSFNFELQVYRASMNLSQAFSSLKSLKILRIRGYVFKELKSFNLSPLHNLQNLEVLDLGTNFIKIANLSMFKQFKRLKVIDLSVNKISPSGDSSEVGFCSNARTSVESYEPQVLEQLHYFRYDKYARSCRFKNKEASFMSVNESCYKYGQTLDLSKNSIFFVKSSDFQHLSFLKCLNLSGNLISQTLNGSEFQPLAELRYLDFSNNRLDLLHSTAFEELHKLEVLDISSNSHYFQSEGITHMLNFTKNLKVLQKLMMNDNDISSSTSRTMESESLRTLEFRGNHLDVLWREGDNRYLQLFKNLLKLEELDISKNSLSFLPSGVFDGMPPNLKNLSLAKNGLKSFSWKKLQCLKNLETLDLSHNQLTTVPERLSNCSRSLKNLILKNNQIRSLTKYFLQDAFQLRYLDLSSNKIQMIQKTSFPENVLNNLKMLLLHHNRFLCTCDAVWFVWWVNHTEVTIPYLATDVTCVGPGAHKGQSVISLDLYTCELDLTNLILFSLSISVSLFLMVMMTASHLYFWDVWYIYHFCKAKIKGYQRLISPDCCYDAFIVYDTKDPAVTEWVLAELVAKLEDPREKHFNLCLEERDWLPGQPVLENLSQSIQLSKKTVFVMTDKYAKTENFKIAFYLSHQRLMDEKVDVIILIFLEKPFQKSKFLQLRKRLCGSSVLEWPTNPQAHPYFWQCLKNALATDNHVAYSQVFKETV
UniProt Q9NR97, 27-1041 limits assumed: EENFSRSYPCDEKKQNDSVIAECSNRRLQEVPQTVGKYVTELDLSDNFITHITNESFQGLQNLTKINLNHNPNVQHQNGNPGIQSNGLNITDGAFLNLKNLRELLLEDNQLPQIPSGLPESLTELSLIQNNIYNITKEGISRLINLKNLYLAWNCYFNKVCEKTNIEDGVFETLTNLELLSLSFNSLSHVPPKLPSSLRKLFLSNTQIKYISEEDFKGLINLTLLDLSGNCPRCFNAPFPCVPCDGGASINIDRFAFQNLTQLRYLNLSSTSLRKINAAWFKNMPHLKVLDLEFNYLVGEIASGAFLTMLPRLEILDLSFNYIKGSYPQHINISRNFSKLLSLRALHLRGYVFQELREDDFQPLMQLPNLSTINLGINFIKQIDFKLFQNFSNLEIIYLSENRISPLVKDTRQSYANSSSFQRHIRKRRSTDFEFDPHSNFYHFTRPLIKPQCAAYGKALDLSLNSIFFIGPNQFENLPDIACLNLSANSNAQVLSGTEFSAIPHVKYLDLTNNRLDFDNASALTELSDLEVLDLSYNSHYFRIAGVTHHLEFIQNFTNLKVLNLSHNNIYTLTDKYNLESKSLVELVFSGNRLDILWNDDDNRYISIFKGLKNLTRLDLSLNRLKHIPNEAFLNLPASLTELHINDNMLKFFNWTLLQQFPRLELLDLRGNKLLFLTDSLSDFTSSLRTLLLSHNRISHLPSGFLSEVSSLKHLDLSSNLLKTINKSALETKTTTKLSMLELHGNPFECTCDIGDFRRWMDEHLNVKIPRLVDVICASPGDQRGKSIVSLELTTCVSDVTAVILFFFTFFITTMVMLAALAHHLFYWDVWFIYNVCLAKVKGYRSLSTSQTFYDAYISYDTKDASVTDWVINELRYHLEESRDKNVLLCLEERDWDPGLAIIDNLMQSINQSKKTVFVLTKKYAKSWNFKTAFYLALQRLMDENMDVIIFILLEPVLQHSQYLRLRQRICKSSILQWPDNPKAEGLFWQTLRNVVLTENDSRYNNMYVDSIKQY

[2] = target: human TLR8 (Homo sapiens, UniProt Q9NR97); test: HEK-Blue hTLR8 SEAP reporter gene inhibition assay; settings: read-out: HEK-Blue hTLR8 IC50; hTLR8 HEK-Blue cells, TLR8 ligand 10 µM, 20 hours, SEAP by Quanti-blue; class symbols
Procedure: as §1, §2

IC50 [1]: < 50 nM
IC50 [2]: > 100 nM
Compound: CC1Cc2c(nn3c2CN(c2ccc(C#N)n4ncc(F)c24)C[C@H]3C)C(C)N1 (single isomer, unassigned)
